The series can be described thus: Solubility in water of possible ingredients. It counts as physicochemical. The conditions noted are these: result in words.

With PEG-8 Oleate, the “Solubility in H2O” value is recorded as “complete”.

The record behind these values is patent US20100273696A1, “Composition and method for the prevention and removal of unwanted paint on a surface” (priority 2009, published 2010).
